This is a sample that favours compounds with a hit; in the whole collection about 4.2% have one here.
MC4R antag cAMP = human MC4R antagonism in cAMP assay; MC4R-expressing cells, MTII-stimulated cAMP, LANCE TR-FRET; inhibition, % at 6.5 µM; P32245; 360,000 tested, 0.48% active;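 active = inhibition above its plate's cutoff, the mean of tested wells on that plate plus 3 SD, cut at about 29% in these data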
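Test system: U2OS cells stably expressing human melanocortin 4 receptor (MC4R); also added: Melanotan II challenge; compound: 6.5 µM single dose; timing: 30-min compound preincubation, 1-h Melanotan II challenge, 1-h detection, room temperature; signal: Eu-cAMP/anti-cAMP TR-FRET, emission 671 nm; repeats: one well per compound, no replicates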
MC4R ag barr = agonists of human melanocortin 4 receptor (MC4R) beta-arrestin. 360,000 tested, 0.98% active. P32245. AID 540308. activation, % at 8.9 µM. U2OS MC4R beta-arrestin complementation, luminescence; percent of melanotan II response, DMSO zero;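 active = activation above a per-plate cutoff, the mean activation of sample wells on that plate plus 3 SD, cut at about 8% in these data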
Yeast UUG start = alters start codon recognition fidelity in yeast; AID 602363; activity score, % at 18.7 µM; 350,000 tested, 0.13% active; S. cerevisiae UUG-firefly luciferase reporter, luminescence/redox ratio;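 active means replicate mean at a twofold rise or more, about +100% in these data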;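 further: firefly luciferase made from a UUG start codon reports start codon fidelity; reporter light over untreated wells divided by growth signal over untreated wells; some hits fall short of that in this replicate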
ALR H2O2 inh = inhibitors of human sulfhydryl oxidase ALR; AID 485317; inhibition, % (no concentration beside the values); purified ALR, DTT oxidation, H2O2 HRP-luminol luminescence; hit rate 3.8% among 290,000;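 active means mean and each replicate at 75% or more; inconclusive means only one of the two met; inactive means neither met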;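 further: stock transfer was 7.5 nL into about 7.5 µL; 0% = neutral wells and 100% = wells with inactivated enzyme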
HDAC3 inh = blocks human histone deacetylase 3; recombinant HDAC3, fluorogenic peptide/trypsin coupled, fluorescence; inhibition, % at 8.3 µM; 320,000 tested, 0.15% active; AID 2718; in the data active = inhibition above about 26%, passing the limit was not always enough
NALP1 yeast inh = blocks the NALP1 inflammasome reconstituted in yeast; inhibition, % at 10 µM; S. cerevisiae NALP1/ASC/caspase-1 growth, X-gal OD620, 72 h; 280,000 tested, 0.61% active; in the data active = inhibition mostly above about 24%, no sharp cut-off; inactive = mostly below about 32%
Hits are given with their value.

How did O=C(O)c1cccc(N/N=C/c2cc(Br)cc(Br)c2O)c1 do in these assays?
MC4R antag cAMP: inactive; MC4R ag barr: inactive; Yeast UUG start: inactive; ALR H2O2 inh: 98; HDAC3 inh: inactive; NALP1 yeast inh: inactive

Results for Cc1c(N=Cc2cc(Br)cc(Br)c2O)cccc1C(=O)O ?
MC4R antag cAMP: inactive; MC4R ag barr: inactive; ALR H2O2 inh: 98; HDAC3 inh: inactive; NALP1 yeast inh: 58

What do the screens show for `CN(/N=C/c1cc(Br)cc(Br)c1O)c1ccccc1`?
MC4R antag cAMP: inactive; MC4R ag barr: inactive; Yeast UUG start: inactive; ALR H2O2 inh: inactive; HDAC3 inh: inactive; NALP1 yeast inh: inactive

What do the screens show for `CN(C)c1ccc(/C=N/Nc2cccc(C(=O)O)c2)cc1`?
MC4R antag cAMP: inactive; MC4R ag barr: inactive; Yeast UUG start: inactive; ALR H2O2 inh: 99; HDAC3 inh: inactive; NALP1 yeast inh: inactive

Results for O=C(O)c1cccc(N/N=C/c2ccc(-c3ccccc3)cc2)c1 ?
MC4R antag cAMP: inactive; MC4R ag barr: inactive; NALP1 yeast inh: inactive

Results for COc1ccc(Br)cc1/C=N/Nc1cccc(C(=O)O)c1 ?
MC4R antag cAMP: inactive; MC4R ag barr: inactive; HDAC3 inh: inactive; NALP1 yeast inh: inactive

What do the screens show for `C[C@H](NC(=O)C[C@H]1C[C@H]2c3cc(NC(=O)C4CCC4)ccc3O[C@H]2[C@H](CO)O1)c1ccccc1`?
Yeast UUG start: inactive

What do the screens show for `O=C(NCC[C@@H]1CC[C@@H](NC(=O)C2CCC2)[C@@H](CO)O1)c1cnccn1`?
Yeast UUG start: inactive

How did O=C(C[C@@H]1CC[C@@H](NC(=O)Nc2ccc(F)cc2)[C@@H](CO)O1)NCc1ccccn1 do in these assays?
Yeast UUG start: inactive

Results for O=C(O)Cc1sc(-c2ccccc2Cl)nc1-c1ccccc1 ?
MC4R antag cAMP: inactive; MC4R ag barr: inactive; Yeast UUG start: inactive; ALR H2O2 inh: 99; HDAC3 inh: inactive; NALP1 yeast inh: inactive

Results for O=C(Cc1sc(-c2ccccc2)nc1-c1ccccc1)Nc1ccccc1 ?
MC4R antag cAMP: inactive; MC4R ag barr: inactive; Yeast UUG start: inactive; ALR H2O2 inh: inactive; HDAC3 inh: inactive; NALP1 yeast inh: inactive

How did Cc1ccc(-c2nc(-c3ccc(Cl)cc3)sc2CC(=O)O)c(C)c1 do in these assays?
MC4R antag cAMP: inactive; MC4R ag barr: inactive; ALR H2O2 inh: 99; HDAC3 inh: inactive; NALP1 yeast inh: inactive

Results for O=C(O)Cc1sc(NC2CCCCC2)nc1-c1ccc(Cl)cc1 ?
MC4R antag cAMP: inactive; MC4R ag barr: inactive; Yeast UUG start: inactive; ALR H2O2 inh: inactive; HDAC3 inh: inactive; NALP1 yeast inh: inactive

How did O=C(c1ccccc1F)N1C[C@H]2[C@@H](c3ccccc31)[C@H](CO)N2C(=O)c1ccccc1 do in these assays?
Yeast UUG start: inactive

What do the screens show for `Cc1c(Cl)c(-c2n[nH]c(=S)n2-c2ccccc2)nn1C`?
MC4R antag cAMP: inactive; MC4R ag barr: inactive; Yeast UUG start: inactive; ALR H2O2 inh: 92; HDAC3 inh: inactive; NALP1 yeast inh: inactive

Results for CN(C)c1ccc(-c2n[nH]c(=S)n2-c2ccccc2)cc1 ?
MC4R antag cAMP: inactive; MC4R ag barr: inactive; Yeast UUG start: inactive; ALR H2O2 inh: 95; HDAC3 inh: inactive; NALP1 yeast inh: inactive

What do the screens show for `CCN(CC)c1ccc(-c2n[nH]c(=S)n2-c2ccccc2)cc1`?
MC4R antag cAMP: inactive; MC4R ag barr: inactive; ALR H2O2 inh: inactive; HDAC3 inh: inactive; NALP1 yeast inh: inactive

What do the screens show for `COc1cccc(NC(=O)N(C)C[C@@H]2Oc3cc(C#Cc4ccc(F)cc4)ccc3S(=O)(=O)N([C@@H](C)CO)C[C@@H]2C)c1`?
Yeast UUG start: inactive

What do the screens show for `COc1cccc(-c2ccc([C@H]3[C@@H](CO)N4CCCCN(Cc5cncnc5)C[C@H]34)cc2)c1`?
Yeast UUG start: inactive

How did C[C@@H]1CN([C@@H](C)CO)S(=O)(=O)c2ccc(-c3cncnc3)cc2O[C@H]1CN(C)C(=O)C1CC1 do in these assays?
Yeast UUG start: inactive

What do the screens show for `COC(=O)c1scc(C)c1N/N=C(\C)c1ccc(F)cc1`?
MC4R antag cAMP: inactive; MC4R ag barr: inactive; Yeast UUG start: inactive; ALR H2O2 inh: inactive; HDAC3 inh: inactive; NALP1 yeast inh: 42

Results for CCCC#Cc1cnc2c(c1)C(=O)N([C@H](C)CO)C[C@H](C)[C@@H](CN(C)C)O2 ?
Yeast UUG start: inactive

How did O=C(C[C@H]1C[C@H]2c3cc(NC(=O)c4cccnc4)ccc3O[C@H]2[C@H](CO)O1)NCc1ccncc1 do in these assays?
Yeast UUG start: inactive

What do the screens show for `CCCCSCCCNC(=S)Nc1ccccc1C`?
MC4R antag cAMP: inactive; MC4R ag barr: inactive; Yeast UUG start: inactive; ALR H2O2 inh: 77; HDAC3 inh: inactive; NALP1 yeast inh: inactive

Results for CCNC(=O)C[C@H]1CC[C@H]2[C@@H](COC[C@@H](O)CN2Cc2ccncc2)O1 ?
Yeast UUG start: inactive

What do the screens show for `O=C(C[C@@H]1C[C@H]2c3cc(NC(=O)NC4CCCCC4)ccc3O[C@H]2[C@H](CO)O1)NCc1cccnc1`?
Yeast UUG start: inactive

How did O=C(NCC[C@@H]1CC[C@@H](NC(=O)Nc2cc(F)ccc2F)[C@@H](CO)O1)Nc1ccc(F)cc1 do in these assays?
Yeast UUG start: inactive

What do the screens show for `CCCCCCCCCCS(=O)(=O)N/N=C/c1ccc(O)cc1`?
MC4R antag cAMP: inactive; MC4R ag barr: 9.0; ALR H2O2 inh: inactive; HDAC3 inh: inactive; NALP1 yeast inh: inactive

What do the screens show for `CCCCCCCCCS(=O)(=O)N/N=C/c1cccc([N+](=O)[O-])c1`?
MC4R antag cAMP: inactive; MC4R ag barr: inactive; ALR H2O2 inh: inactive; HDAC3 inh: inactive; NALP1 yeast inh: inactive

What do the screens show for `CCS(=O)(=O)NCC[C@H]1CC[C@H](NC(=O)C2CCC2)[C@@H](CO)O1`?
Yeast UUG start: inactive

What do the screens show for `C[C@H](CO)N1C[C@H](C)[C@H](CN(C)Cc2cccc(C(F)(F)F)c2)Oc2ncc(C#Cc3ccccc3)cc2C1=O`?
Yeast UUG start: inactive

Results for CCOC(=O)C1(Cc2ccccc2)CCN(Cc2cccn2-c2nccs2)CC1 ?
MC4R antag cAMP: inactive; MC4R ag barr: inactive; ALR H2O2 inh: inactive; HDAC3 inh: inactive; NALP1 yeast inh: inactive

How did CCOC(=O)C1(Cc2cccc(OC)c2)CCN(Cc2cccn2-c2nccs2)CC1 do in these assays?
MC4R antag cAMP: inactive; MC4R ag barr: inactive; Yeast UUG start: inactive; ALR H2O2 inh: inactive; HDAC3 inh: inactive; NALP1 yeast inh: 39

Results for CNC(=O)C[C@H]1CC[C@H]2[C@@H](COc3ccc(NC(=O)Nc4ccccc4F)cc3C(=O)N2C)O1 ?
Yeast UUG start: inactive

How did CCc1ccc(N=C2NC(=O)/C(=C/c3ccc(OCC(=O)O)cc3)S2)cc1 do in these assays?
MC4R antag cAMP: inactive; MC4R ag barr: inactive; Yeast UUG start: inactive; ALR H2O2 inh: 98; HDAC3 inh: inactive; NALP1 yeast inh: inactive

Results for CCc1ccc(N=C2NC(=O)/C(=C/c3ccc(OCC(=O)O)c(OC)c3)S2)cc1 ?
MC4R antag cAMP: inactive; MC4R ag barr: inactive; Yeast UUG start: inactive; NALP1 yeast inh: inactive

Assay outcomes deposited in PubChem by several laboratories.
